This is a selection; strong and weak results do not stand in their true shares. The source made the active and inactive calls.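 The calls were made as follows: active = ratio plate-corrected score three or more library SD toward inhibition, starting fluorescence score within five deviations; inactive = the rest.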
molecular target: Anoctamin-1 (Mus musculus) (UniProt Q8BHY3); test: blockers of mouse ANO1 Ca-activated Cl channel – cell-based, HTS, primary screen (AID 588511); settings: HEK293 TMEM16A/YFP iodide influx fluorescence, ionomycin; at 10 µM

Chains of the proteins cited; added tags and fusions are not shown.
UniProt Q8BHY3, whole entry: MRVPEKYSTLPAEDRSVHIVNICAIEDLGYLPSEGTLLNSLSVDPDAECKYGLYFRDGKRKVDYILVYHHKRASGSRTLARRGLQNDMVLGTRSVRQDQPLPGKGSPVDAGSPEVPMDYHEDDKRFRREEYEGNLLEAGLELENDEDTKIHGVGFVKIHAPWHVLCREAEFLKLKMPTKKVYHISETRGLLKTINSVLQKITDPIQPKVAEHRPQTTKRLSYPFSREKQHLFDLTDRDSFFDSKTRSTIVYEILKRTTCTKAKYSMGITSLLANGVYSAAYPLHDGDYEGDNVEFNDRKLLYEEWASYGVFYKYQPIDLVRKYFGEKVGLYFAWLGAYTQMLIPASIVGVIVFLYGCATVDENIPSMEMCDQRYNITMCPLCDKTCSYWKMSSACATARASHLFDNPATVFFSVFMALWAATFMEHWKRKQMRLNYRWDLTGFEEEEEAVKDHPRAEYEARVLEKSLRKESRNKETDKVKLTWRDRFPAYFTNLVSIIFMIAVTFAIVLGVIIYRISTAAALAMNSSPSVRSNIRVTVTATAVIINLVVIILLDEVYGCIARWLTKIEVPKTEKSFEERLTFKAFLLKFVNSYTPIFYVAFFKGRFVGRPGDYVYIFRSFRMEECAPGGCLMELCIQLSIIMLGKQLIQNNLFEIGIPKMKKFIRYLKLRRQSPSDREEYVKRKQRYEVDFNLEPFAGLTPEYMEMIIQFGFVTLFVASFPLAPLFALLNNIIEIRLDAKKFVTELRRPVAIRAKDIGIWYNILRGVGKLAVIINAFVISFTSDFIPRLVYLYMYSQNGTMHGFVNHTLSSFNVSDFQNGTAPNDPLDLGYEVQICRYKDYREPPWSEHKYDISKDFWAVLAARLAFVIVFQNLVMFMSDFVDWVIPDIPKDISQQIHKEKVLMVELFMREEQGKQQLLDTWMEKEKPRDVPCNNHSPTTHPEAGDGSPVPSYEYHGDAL

| SMILES | outcome | B-score |
| --- | --- | --- |
| CC(C)(C)C(=O)NC(Sc1ccncn1)C(Cl)(Cl)Cl (stereo not drawn) | inactive | – |
| O=[N+]([O-])c1ncn(CCn2ncnc2[N+](=O)[O-])n1 | inactive | – |
| O=[N+]([O-])c1cccc(NC2=NCC(CBr)S2)c1 (stereo not drawn) | inactive | – |
| O=C(O)CNc1ccc([As](=O)(O)O)cc1 | inactive | – |
| Nc1ccc2c(ccc3cccnc32)n1.O=[N+]([O-])c1cc([N+](=O)[O-])c(O)c([N+](=O)[O-])c1 | inactive | – |
| CCOC(=O)c1ccc(NP(C)(=O)Oc2ccc(Cl)cc2)cc1 (stereo not drawn) | inactive | – |
| O=C(Nc1cc([As](=O)(O)O)ccc1O)c1ccccc1 | inactive | – |
| CP(=O)(OC12CC3CC(CC(C3)C1)C2)OC12CC3CC(CC(C3)C1)C2 | inactive | – |
| Cc1nc2ccc3ccccc3c2o1.O=[N+]([O-])c1cc([N+](=O)[O-])c(O)c([N+](=O)[O-])c1 | inactive | – |
| O=[N+]([O-])c1cc([N+](=O)[O-])c(CCN2CCOCC2)c([N+](=O)[O-])c1 | inactive | – |
| CCN(N=Nc1nonc1N)c1nonc1N | inactive | – |
| Nc1cccc2ccc([As](=O)(O)O)cc12 | inactive | – |
| CP(=O)(OCCOc1ccccc1)OCCOc1ccccc1 | inactive | – |
| CP(=O)(Nc1ccc(Cl)cc1Cl)Oc1ccccc1 (stereo not drawn) | inactive | – |
| O=C(O)c1ccccc1[As](=O)(O)O | inactive | – |
| CC(=O)Nc1ccc([As](=O)(O)O)cc1 | inactive | – |
| Cc1cc(C)cc(OP(C)(=O)Nc2cccc(C(F)(F)F)c2)c1 (stereo not drawn) | inactive | – |
| O=P(Nc1nc2ccc(Cl)cc2s1)(c1ccccc1)c1ccccc1 | inactive | – |
| CCOP(=O)(Nc1ccccc1)OCC | inactive | – |
| Cc1cc(SC(NC(=O)c2ccc(F)cc2)C(Cl)(Cl)Cl)ncn1 (stereo not drawn) | inactive | – |
| Cc1ccc(NP(=O)(Oc2ccccc2F)Oc2ccccc2F)nc1 | inactive | – |
| CN(C(=O)Cc1ccc(Cl)c(Cl)c1)[C@H]1CCCC[C@@H]1N1CCCC1 | inactive | – |
| COc1ccccc1OP(C)(=O)Nc1ccc(C)c(C)c1 (stereo not drawn) | inactive | – |
| COc1ccc(OP(C)(=O)Nc2ccccc2Br)cc1 (stereo not drawn) | inactive | – |

| SMILES | outcome | B-score |
| --- | --- | --- |
| CC(C)CC(=O)NC(Sc1ccc(Cl)cc1)C(Cl)(Cl)Cl (stereo not drawn) | inactive | – |
| O=[N+]([O-])c1cc([N+](=O)[O-])c(Nc2ccccn2)c([N+](=O)[O-])c1 | inactive | – |
| Cc1c(NP(C)(=O)Oc2ccc(C(C)C)cc2)c(=O)n(-c2ccccc2)n1C (stereo not drawn) | inactive | – |
| Nc1cc(N)c2nonc2c1[N+](=O)[O-] | inactive | – |
| Oc1ccccc1CNc1ccccn1 | inactive | – |
| Cc1c2non([O-])c-2c(C)[n+](=O)[n+]1[O-] | inactive | – |
| O=C(NC(Sc1ccncn1)C(Cl)(Cl)Cl)c1ccccc1 (stereo not drawn) | inactive | – |
| CP(=O)(Nc1ccccn1)Oc1ccccc1 (stereo not drawn) | inactive | – |
| COc1ccccc1OP(C)(=O)Nc1ccc(C)cc1C (stereo not drawn) | inactive | – |
| CCc1ccc(OP(C)(=O)O)cc1 | inactive | – |
| NC(=O)c1cc([N+](=O)[O-])cc([N+](=O)[O-])c1N | inactive | – |
| COc1ccccc1OP(C)(=O)Nc1ccc(Br)cc1 (stereo not drawn) | inactive | – |
| CN(C(=O)Cc1ccc(Cl)c(Cl)c1)[C@H]1CCCC[C@H]1N1CCCC1 | inactive | – |
| Cc1ccc(N/C(=N/P(=O)(N2CCOCC2)N2CCOCC2)N2CCOCC2)cc1 | inactive | – |
| COc1ccc(OP(C)(=O)Nc2ccccn2)cc1 (stereo not drawn) | inactive | – |
| COc1ccccc1OP(=O)(Nc1ccc(C)cn1)Oc1ccccc1OC | inactive | – |
| Cc1ccc(OP(=O)(Nc2nccs2)Oc2ccc(C)cc2)cc1 | inactive | – |
| Clc1ccc(Cl)c(NC2=NCC(CBr)S2)c1 (stereo not drawn) | inactive | – |
| CN(C)CCOC(=O)C(O)(c1ccccc1)C1CCCC1 (stereo not drawn) | inactive | – |
| CN1CCCC(OC(=O)C(c2ccccc2)c2ccccc2)C1 (stereo not drawn) | inactive | – |
| COc1ccc(N/C(=N/P(=O)(N2CCOCC2)N2CCOCC2)N2CCOCC2)cc1 | inactive | – |
| O=C(OC1CN2CCC1CC2)C12CC3CC(CC(C3)C1)C2 (stereo not drawn) | inactive | – |
| Cc1cc(=O)[nH]c(N[N+](=O)[O-])n1 | inactive | – |
| CCN(CC)CCCOC(=O)C(O)(c1ccccc1)c1ccccc1 | inactive | – |

| SMILES | outcome | B-score |
| --- | --- | --- |
| Cc1c2c(nc3ccccc13)SC(C(Cl)Cl)C2 (stereo not drawn) | inactive | – |
| COc1ccc2nc(NP(=O)(c3ccccc3)c3ccccc3)sc2c1 | inactive | – |
| COc1cc(I)ccc1[As](=O)(O)O | inactive | – |
| COc1ccccc1OP(C)(=O)Nc1ccc(C)cc1 (stereo not drawn) | inactive | – |
| Cc1ccc(NP(C)(=O)Oc2ccccc2)c(C)c1 (stereo not drawn) | inactive | – |
| CC(C)c1ccc(OP(=O)(Nc2ccccn2)Oc2ccccc2F)cc1 (stereo not drawn) | inactive | – |
| CCOC(=O)c1ccc(NP(C)(=O)Oc2ccccc2)cc1 (stereo not drawn) | inactive | – |
| ClCCSc1nnc(-c2cccnc2)o1 | inactive | – |
| Cc1cc(C)cc(OP(C)(N)=O)c1 (stereo not drawn) | inactive | – |
| CCN(CC)C(=S)SC(NC=O)C(Cl)(Cl)Cl (stereo not drawn) | inactive | – |
| COc1ccccc1OP(C)(=O)Nc1cc(Cl)ccc1C (stereo not drawn) | inactive | – |
| CC(C)NC(=O)NP(=O)(Oc1ccccc1)Oc1ccccc1 | inactive | – |
| O=[N+]([O-])c1cc([N+](=O)[O-])c(-c2ccn[nH]2)s1 | inactive | – |
| COc1ccc(OP(C)(=O)Nc2cccc(F)c2)cc1 (stereo not drawn) | inactive | – |
| C[As](=O)(O)c1cccc(C(=O)O)c1 | inactive | – |
| O=[As](O)(c1ccc(O)cc1)c1ccccc1O | inactive | – |
| O=[N+]([O-])c1cc([N+](=O)[O-])c(Nc2cccnc2)c([N+](=O)[O-])c1 | – | active: 100 |
| Cc1ccc2nc3c(c(C)c2c1)CC(C(Cl)Cl)S3 (stereo not drawn) | inactive | – |
| O=[N+]([O-])c1ccc2c(c1)C=Nc1ccccc1O2 | inactive | – |
| CC(C)(C)c1ccc(OP(C)(=O)Nc2ccc(SC(F)(F)F)cc2)cc1 (stereo not drawn) | inactive | – |
| Cc1ccc(OP(=O)(Nc2ccc([N+](=O)[O-])cn2)Oc2ccc(C)cc2)cc1 | inactive | – |
| Cc1cccc(C)c1OP(C)(N)=O (stereo not drawn) | inactive | – |
| CCOC(=O)Nc1cccc([As](=O)(O)O)c1 | inactive | – |
| CP(=S)(Nn1cnnc1)Oc1ccccc1 (stereo not drawn) | inactive | – |

| SMILES | outcome | B-score |
| --- | --- | --- |
| CP(=O)(Nc1ccccc1Br)Oc1ccccc1 (stereo not drawn) | inactive | – |
| O=[N+]([O-])c1ccc(Nc2ccc(Oc3ccc([N+](=O)[O-])cc3[N+](=O)[O-])cc2)c([N+](=O)[O-])c1 | inactive | – |
| O=P(Nc1ccccn1)(c1cccc2ccccc12)c1cccc2ccccc12 | inactive | – |
| Cc1cc(SC(NC=O)C(Cl)(Cl)Cl)ncn1 (stereo not drawn) | inactive | – |
| COc1ccccc1OP(C)(=O)Nc1ccccc1 (stereo not drawn) | inactive | – |
| CCOC(=O)Nc1ccc([As](=O)(O)O)c(O)c1 | inactive | – |
| Cc1cc(SC(NC(=O)c2ccccc2)C(Cl)(Cl)Cl)nc(C(C)C)n1 (stereo not drawn) | inactive | – |
| CCOC(=O)c1ccc(NP(C)(=O)Oc2ccc(OC)cc2)cc1 (stereo not drawn) | inactive | – |
| CCOC(=O)c1ccc(NC(=O)C(C)(CCl)SC)cc1 (stereo not drawn) | inactive | – |
| O=[N+]([O-])c1cc([N+](=O)[O-])c(O)c([N+](=O)[O-])c1.c1ccc(Oc2ccncc2)cc1 | inactive | – |
| CCOP(C)(=S)SCC(=O)NC(C)C(=O)O (stereo not drawn) | inactive | – |
| O=C(OC1CN2CCC1CC2)c1cccc([N+](=O)[O-])c1 (stereo not drawn) | inactive | – |
| CP(=O)(Nc1ccccn1)Oc1ccc(Cl)cc1 (stereo not drawn) | inactive | – |
| CCC(C)N(CC(C)C)C(=S)SC(NC(C)=O)C(Cl)(Cl)Cl (stereo not drawn) | inactive | – |
| Cc1cccc(C)c1OP(C)(=O)Nc1ccc(SC(F)(F)F)cc1 (stereo not drawn) | inactive | – |
| CP(=O)(Nc1ccc(SC(F)(F)F)cc1)Oc1ccc(Cl)cc1 (stereo not drawn) | inactive | – |
| COP1(=S)c2c(C)nn(CCC#N)c2N=C(c2ccc(F)cc2)N1C (stereo not drawn) | inactive | – |
| CP(=O)(Oc1ccccc1)OC(c1ccccc1)C(F)(F)F (stereo not drawn) | inactive | – |
| CCc1ccc(OP(C)(=O)N2CCN(c3ccc([N+](=O)[O-])cc3)CC2)cc1 (stereo not drawn) | inactive | – |
| O=C(COc1ccccc1)OC1CN2CCC1CC2 (stereo not drawn) | inactive | – |
| CP(=O)(NC(=O)Nc1ccccc1)Oc1ccccc1 (stereo not drawn) | inactive | – |
| O=C(Nc1ccncc1[N+](=O)[O-])c1ccc([N+](=O)[O-])cc1[N+](=O)[O-] | inactive | – |
| Cc1cc(C)cc(OP(C)(=O)Nc2ccc(SC(F)(F)F)cc2)c1 (stereo not drawn) | inactive | – |
| COc1ccccc1CNC(=O)COC(=O)C(O)(c1ccccc1)c1ccccc1 | inactive | – |

| SMILES | outcome | B-score |
| --- | --- | --- |
| O=[N+]([O-])c1cc([N+](=O)[O-])c(-c2cnn(-c3ccccc3)c2)c([N+](=O)[O-])c1 | inactive | – |
| O=[As](O)(c1ccccc1Br)c1ccccc1Br | inactive | – |
| CC1(CBr)Cn2c(nc3ccccc3c2=O)S1 (stereo not drawn) | inactive | – |
| Cc1nc2ccc3ccccc3c2s1.O=[N+]([O-])c1cc([N+](=O)[O-])c(O)c([N+](=O)[O-])c1 | inactive | – |
| CC(C)/C=N\N=C(\N)N[N+](=O)[O-] | inactive | – |
| CN(C(=O)Cc1ccc(Cl)c(Cl)c1)[C@@H]1CCCC[C@H]1N1CCCC1 | inactive | – |
| CN(CCCl)Cc1cc(Cl)c(NC2=NCCN2)c(Cl)c1 | inactive | – |
| CCOP(=O)(Nc1ccc(C)cn1)OCC | inactive | – |
| O=P1(Nc2ccccn2)COc2ccccc2OC1 | inactive | – |
| CCC1=CC2Cc3nc4ccc(Cl)cc4c(N)c3C(C1)C2 (stereo not drawn) | inactive | – |
| CCOP(=O)(NC(=NC(C)c1ccccc1)NC(C)c1ccccc1)OCC (stereo not drawn) | inactive | – |
| O=[N+]([O-])c1cc([N+](=O)[O-])c(-n2nnc3ccccc32)c([N+](=O)[O-])c1 | inactive | – |
| Clc1n[nH]nc1-c1nn[nH][15n]1 | inactive | – |
| CC(C)(C)C(=O)NC(Sc1ncccn1)C(Cl)(Cl)Cl (stereo not drawn) | inactive | – |
| O=P1(Nc2ncccn2)COc2ccccc2OC1 | inactive | – |
| COc1ccccc1OP(C)(=O)Nc1c(C)cccc1C (stereo not drawn) | inactive | – |
| CN1CCCCC1COC(=O)C1(O)c2ccccc2CCc2ccccc21 (stereo not drawn) | inactive | – |
| O=P1(Nc2ccc(Br)cn2)COc2ccccc2OC1 | inactive | – |
| Cc1ccc(OCC(=O)OC2CN3CCC2CC3)cc1 (stereo not drawn) | inactive | – |
| O=[As](O)(c1cccs1)c1cccs1 | inactive | – |
| CP(=O)(Nc1ccc(SC(F)(F)F)cc1)Oc1ccccc1 (stereo not drawn) | inactive | – |
| Nc1cccc([As](=O)(O)c2ccccc2)c1 | inactive | – |

Reference: PubChem BioAssay AID588511 (Johns Hopkins Ion Channel Center, 2011)
